Measurements from patent US6716833B2, “Acetylenic α-amino acid-based sulfonamide hydroxamic acid tace inhibitors” (priority 1999, dated 2004).

Molecular target: MMP-13 (Homo sapiens, UniProt P45452)
Assay: MMP-13 inhibition (thiopeptide or fluorescent peptide substrate)
Format: biochemical

SMILES	IC50 [nM]
CC#CCOc1ccc(S(=O)(=O)NC(CSC)C(=O)NO)cc1 (centres unmarked) [Example 167]	40
CC#CCOc1ccc(S(=O)(=O)NC(CSCc2ccccc2)C(=O)NO)cc1 (centres unmarked) [Example 168]	16
